Laboratory results published in publication PMC4849473 (2016).

Legend:
[1] = target: T1, Chp1CD wild type, SUMO tag removed, fluorescently labelled (for MST) (fission yeast (S. pombe), UniProt Q10103 15-75, fluorescent label, amine reactive (Monolith Protein Labeling Kit BLUE-NHS), 1:1 fluorescence:protein ratio); assay: MST
T1 chain: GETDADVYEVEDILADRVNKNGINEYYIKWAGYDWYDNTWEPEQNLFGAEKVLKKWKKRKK

[2] = target: Chp1CD LOOP1B/2B, SUMO tag removed, fluorescently labelled (for MST) (fission yeast (S. pombe), UniProt Q10103, in part, N33A | N35A | W49A | Y50A | D51A, fluorescent label, amine reactive (Monolith Protein Labeling Kit BLUE-NHS), 1:1 fluorescence:protein ratio); assay: MST

B1: [Lys(Me3)9]-Histone H3 ([…])-GGK(Biotin) peptide (peptide)
peptide: not shown
modifications: trimethyl-lysine at 9; biotin on the C-terminal lysine of GGK
With B1 the Kd [1] was 359 nM and the Kd [2] was 315 nM.
